This note sets out measurements from patent US20110318344A1, “Tumor Treatment” (MEDIZINISCHE UNIVERSITAET WIEN, priority 2009, published 2011).

Experiment [1] has as its system MDAH-2774 cells. Nature of the experiment: Proliferation assay (cell number by CASY cell counter, doubling time). In kind it is cell-based, human. Particulars: MDAH-2774, HCRP1-silenced vs controls (FIG. 7B). The protocol: The human ovarian carcinoma cell line MDAH-2774 was cultured in RPMI medium with 10% FCS (fetal calf serum), 50 units/ml penicillin G, and 50 μg/ml streptomycin sulfate at 37° C. in a humidified atmosphere of 95% air with 5% CO2. three different shRNA constructs complementary exclusively to the HCRP1 mRNA in addition to 1 nonsense construct serving a control were cloned into the vector pSilencer 4.1-CMV neo. Transfection was performed with Lipofectamine 2000 according to the manufacturers protocol (Invitrogen, Carlsbad, Calif., USA). Stable clones were selected with 700 μg/ml G418, picked and sub-cultured with 350 μg/ml G418. Silencing efficiency was quantified by qRT-PCR and western blot.
To maintain the logarithmic phase, cells were split at intervals of 48 hours, along with the determination of the cell number by a CASY cell counter (Innovatis AG, Bielefeld, Germany). This procedure was performed in triplicates over a time-span of 6 days and confirmed by a replication of the whole experiment. From the obtained data doubling times (dt) were calculated and depicted as dt-1.

Experiment [2] deals with SK-OV-3 cells. The description is as above. Particulars: SKOV-3, HCRP1-silenced vs controls (FIG. 7A). In kind it is cell-based, human. The protocol:
The SK-OV-3 cell line was cultured equally the MDAH-2774 cell line except for the use of McCoy's medium. For applying the Tet-Off inducible system, founder cell lines were generated by transfecting SK-OV-3 cells with the pTet-Off vector (neo^r) encoding a tetracyclin repressible transactivator (tTA). Resistant colonies were selected with 200 μg/ml G418 and characterized by transient transfection with the luciferase reporter plasmid (pTRE-Luc), whose promoter is induced by the transactivator. Luciferase activity in the presence and absence of tetracycline was measured to identify cells with maximal promoter inducibility. […] These two founder cell lines were used to establish cells inducible for HCRP1-specific shRNA constructs (Open Biosystems; #V2HS 21202, #V2HS 21203), which were cloned into the SIN-TREmiR30-PIG vector (purr) downstream of the tetracycline inducible promoter. Thus, presence of tetracycline in the culture medium would suppress shRNA expression, while its withdrawal would induce the knock-down of HCRP1. […]
To maintain the logarithmic phase, cells were split at intervals of 48 hours, along with the determination of the cell number by a CASY cell counter (Innovatis AG, Bielefeld, Germany). […] From the obtained data doubling times (dt) were calculated and depicted as dt-1.

With “Cetuximab: monoclonal antagonistic antibody against EGFR”, the “dependence of the anti-proliferative effect on HCRP1 expression” value in experiment [1] and in experiment [2] was “observed only in the controls” in each case.
